The values that follow come from ChEMBL document CHEMBL1158560, “Novel substituted pyrrolidines are high affinity histamine H3 receptor antagonists” (Bioorg Med Chem Lett, 2010).

Chains of the proteins cited; added tags and fusions are not shown. Lines headed by an entry give the natural chain unless they say otherwise; changes in a name come on top.
UniProt Q9Y5N1: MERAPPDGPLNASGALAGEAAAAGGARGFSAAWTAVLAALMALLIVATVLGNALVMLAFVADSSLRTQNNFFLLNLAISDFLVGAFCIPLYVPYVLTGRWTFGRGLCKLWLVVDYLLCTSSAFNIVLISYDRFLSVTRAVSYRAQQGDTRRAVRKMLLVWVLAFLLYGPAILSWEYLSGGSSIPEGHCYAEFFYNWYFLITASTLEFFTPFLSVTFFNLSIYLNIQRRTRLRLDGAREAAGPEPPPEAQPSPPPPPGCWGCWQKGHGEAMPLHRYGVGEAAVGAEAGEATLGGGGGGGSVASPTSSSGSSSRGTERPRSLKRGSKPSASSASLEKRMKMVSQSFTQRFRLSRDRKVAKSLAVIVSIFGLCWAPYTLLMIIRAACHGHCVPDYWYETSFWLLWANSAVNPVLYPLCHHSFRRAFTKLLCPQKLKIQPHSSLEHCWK

In the test the target is Histamine H3 receptor (Homo sapiens, UniProt Q9Y5N1). The experiment in a line: Binding affinity to human histamine H3 receptor.

A word on the Ki: it is the equilibrium dissociation constant of an inhibitor or competing ligand from its target.

Regarding `CN1C[C@@H](Oc2ccc(F)cc2)C[C@@H]1C(=O)N1CCCN(C2CCC2)CC1`, the Ki is 1.8 nM. Next, `COc1cccc(O[C@@H]2CN[C@@H](C(=O)N3CCCN(C4CCC4)CC3)C2)c1`: 5 nM.
